Drawing on ChEMBL document CHEMBL6127128, “Discovery of the First-in-Class Dual-Target ROCK/HDAC Inhibitor with Potent Antitumor Efficacy in Vivo That Trigger Antitumor Immunity” (J Med Chem, 2024), this text covers IC50 for one molecule.

The assay addresses T1, Polyamine deacetylase HDAC10 (Homo sapiens, UniProt Q969S8).
T1 sequence (Q969S8 whole entry): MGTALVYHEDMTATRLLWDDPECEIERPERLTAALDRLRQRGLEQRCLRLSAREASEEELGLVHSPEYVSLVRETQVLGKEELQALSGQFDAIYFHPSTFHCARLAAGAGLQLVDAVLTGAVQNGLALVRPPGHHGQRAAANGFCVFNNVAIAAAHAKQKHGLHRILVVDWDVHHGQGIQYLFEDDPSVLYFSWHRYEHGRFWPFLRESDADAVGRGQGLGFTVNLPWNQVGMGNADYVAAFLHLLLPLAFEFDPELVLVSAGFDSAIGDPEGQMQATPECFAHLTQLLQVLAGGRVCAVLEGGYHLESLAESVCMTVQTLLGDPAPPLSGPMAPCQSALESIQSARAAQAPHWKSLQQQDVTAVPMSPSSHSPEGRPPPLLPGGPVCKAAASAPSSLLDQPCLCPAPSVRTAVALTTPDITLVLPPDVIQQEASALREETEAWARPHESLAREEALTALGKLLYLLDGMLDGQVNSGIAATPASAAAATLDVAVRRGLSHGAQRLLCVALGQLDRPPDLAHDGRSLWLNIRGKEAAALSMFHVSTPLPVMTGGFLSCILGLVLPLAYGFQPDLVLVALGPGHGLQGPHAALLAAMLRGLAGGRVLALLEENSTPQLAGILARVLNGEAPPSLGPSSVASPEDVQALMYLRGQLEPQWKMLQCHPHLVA
The assay is described as follows: Inhibition of HDAC10 (unknown origin) using Ac-Arg-His-Lys(Ac)-Lys(Ac)-AMC as substrate preincubated for 5 mins followed by substrate addition for 30 mins and measured following trypsin addition for 30 mins by fluorescence based analysis.

Consider `O=C(CCCCCCC(=O)Nc1ccccc1)NO` [VORINOSTAT], for which the half-inhibitory concentration (IC50) was over 10 µM.

As usually defined, the IC50 is the concentration that inhibits the measured activity by half. Read a low IC50 as higher potency.
